Data: paper PMC3586668 (PLoS ONE, 2013)
Where two headings read alike, the source gives them in different places.

Experiments:
Caco-2 monolayers [1] = conditions: conventional 21-day Caco-2 monolayer, cited from earlier work
rat jejunum = conditions: freshly excised rat jejunum, Ussing chamber model; cited from earlier work
Caco-2 monolayers [2] = experiment: Polypeptide transport across 3-day Caco-2 monolayers (ELISA); assay type: in vitro ADME, Human; conditions: 3-day Caco-2, apical-to-basolateral, room temperature, mean±SD n = 3; for Apparent Permeability (Papp) / Cumulative permeation (amount transported to basolateral chamber): 5 h; for Apparent Permeability (Papp): gentle shaking
Method: Transport of three different macromolecular pharmaceutical peptides was studied across the Caco-2 monolayers at different loading concentrations. […] Different doses were selected for different polypeptides based upon the values reported in literature to not only approach therapeutic efficacy but also to provide a valid comparison with the results obtained in 21-day monolayer system. Polypeptides were incubated with Caco-2 monolayers for 5 hrs at room temperature with gentle shaking. TEER measurements were performed and samples were collected from basolateral chambers of the Caco-2 plates to determine total drug transport and apparent permeability at different concentrations.

[3] = apical loading 0.3 mg (Table 1)

Bovine Insulin
Apical-to-basolateral permeability (Caco-2 monolayers [1]; highest reported value): 0.5±0.3 ×10^−6 cm/sec
Apical-to-basolateral permeability (Caco-2 monolayers [1]; lowest reported value): 1.6±0.4 ×10^−9 cm/sec
Permeability through the rat intestinal mucosa (rat jejunum): 7.4±1.2 ×10^−6 cm/sec
Apparent Permeability (Papp) (Caco-2 monolayers [2]; apical loading 0.05 mg/well): 5.4±2.9 10^−6 cm/s
Cumulative permeation (amount transported to basolateral chamber) (Caco-2 monolayers [2]; apical loading 0.05 mg/well): 1.5 ± 0.8 µg
% Transport in 5 hours (Caco-2 monolayers [2]; apical loading 0.05 mg/well): 3.0±1.6%
Apparent Permeability (Papp) (Caco-2 monolayers [2]; apical loading 0.15 mg/well): 4.2±0.9 10^−6 cm/s
Cumulative permeation (amount transported to basolateral chamber) (Caco-2 monolayers [2]; apical loading 0.15 mg/well): 3.5 ± 0.7 µg
% Transport in 5 hours (Caco-2 monolayers [2]; apical loading 0.15 mg/well): 2.3±0.5%
Apparent Permeability (Papp) (Caco-2 monolayers [2]; [3]): 4.0±1.2 10^−6 cm/s
% Transport in 5 hours (Caco-2 monolayers [2]; [3]): 2.3±0.7%
Cumulative permeation (amount transported to basolateral chamber) (Caco-2 monolayers [2]; apical loading 0.6 mg/well): 13.5 ± 4.0 µg
Apparent Permeability (Papp) (Caco-2 monolayers [2]; apical loading 1.0 mg/well): 4.5±0.9 10^−6 cm/s
Cumulative permeation (amount transported to basolateral chamber) (Caco-2 monolayers [2]; apical loading 1 mg/well): 24.9 ± 5.0 µg
% Transport in 5 hours (Caco-2 monolayers [2]; apical loading 1.0 mg/well): 2.5±0.5%
